# Measured values from patent US8574585B2, “KDR peptides and vaccines comprising the same” (Oncotherapy Science, Inc., priority 2002, dated 2013).
# Test system: transgenic mice that express human HLA (A0201)
# Assay: IFN-γ ELISPOT of splenocytes from peptide-vaccinated A2/Kb transgenic mice
# Type: in vivo, mouse
# Source text: CTLs were induced by a vaccination method, using the 16 types of 9-mer and 10-mer peptides (SEQ ID NOs:26 to 41) predicted in Example 6 on transgenic mice that express human HLA (A0201) (Hum. Immunol., 2000 August; 61(8):764-79 Related Articles, Books, Linkout Induction of CTL response by a minimal epitope vaccine in HLA A*0201/DR1 transgenic mice: dependence on HLA class II restricted T(H) response, BenMohamed, L., Krishnan, R., Longmate, J., Auge, C., Low, L., Primus, J., and Diamond, D. J.).
# Six- to eight-week old BALB/C(H-2^d) mice were obtained from CLEA Japan. A2/Kb transgenic mice (TGM) were provided by F. Jim Primus, Ph.D. at Vanderbilt-Ingram Cancer Center. T2 cells (TAP-deficient and HLA-A*0201-positive cells) were provided by Prof. H. Shiku at Mie University's Third Department of Internal Medicine.
# […] DCs were reacted with FITC-labeled anti-ClassII and CD40 antibodies, and PE-labeled anti-ClassI, CD11c, CD80, and CD86 antibodies (all from Beckton-Dickinson), and confirmed to be DCs by analysis of the surface antigens by FACS-Calibur (Beckton-Dickinson) using Cell Quest software.
# Next, 100 μg of each peptide, 140 μg of HbcAg120-140 helper peptide, and 100 μL of IFA were mixed (200 μL in total). The mixture was administered subcutaneously to the right abdomen on day 0, and to the left abdomen on day 11. The spleens of the vaccinated mice were collected on day 21, erythrocytes were hemolytically removed using red lysis buffer (Sigma), and a portion of those cells were used as responder cells for IFN-γ ELISPOT assay. The remaining cells were placed into a 24-well plate (Corning) at 6×10^6 cells/well with feeder cells at a ratio of 3:1, and stimulated again. Their cytotoxicity was measured five days later. Erythrocyte-free splenocytes, which were derived from syngeneic mice, were cultured for three days in the presence of 25 μg/mL of lipopolysaccharide (LPS) to use as feeder cells.
# In this Example, the IFN-γ ELISPOT method was used to evaluate CTL inducibility according to SPOTs produced by IFN-γ producing cells. Flat-bottomed 96-well multiscreen plate MAHA S45 (Millipore) was treated at 4° C. overnight with anti-mouse IFN-γ monoclonal antibody (Pharmingen). On the following day, the plate washed with PBS containing 0.05% Tween 20, and then reacted with a blocking buffer at room temperature for two hours. Thereafter, peptide-pulsed T2 cells and unpulsed T2 cells were added to each well at 10^5 cells/100 μL. […] The blue spots resulting from IFN-γ production were measured using KS ELISPOT compact release (Carl Zeiss).
# Specific blue spots were determined as: Specific blue spot=(TISI(+)SPOT−TISI(−)SPOT) Those satisfying the following condition were considered effective: TISI(+)SPOT/TISI(−)SPOT≧2
sequence,measurement,setting,value
"DVLYGPDTPI [SEQ ID NO:53, reference compound]",ELISPOT ANALYSIS ×40 (SFC) MOUSE1 pep(+),"mouse 1, peptide-pulsed T2 cells",229 SFC
same,ELISPOT ANALYSIS ×40 (SFC) MOUSE1 pep(−),"mouse 1, unpulsed T2 cells",2 SFC
same,ELISPOT ANALYSIS ×40 (SFC) MOUSE2 pep(+),"mouse 2, peptide-pulsed T2 cells",230 SFC
same,ELISPOT ANALYSIS ×40 (SFC) MOUSE2 pep(−),"mouse 2, unpulsed T2 cells",6 SFC
